Test: Pharmacokinetics of tigecycline after single oral (gavage) and intravenous dose in 0.9% saline
Details: Mean (n = 4)
[1] = 15 mg/kg IV Gavage (so in the source)

Tigecycline
AUC/Dose (15 mg/kg 0.9% saline, Gavage): 10.9
Cmax/Dose (15 mg/kg 0.9% saline, Gavage): 10.9
AUC/Dose [1]: 3653
Cmax/Dose [1]: 3014

Source: patent publication US20080014256A1, “Oral formulations comprising tigecycline” (priority 2005, published 2008)
